Experimental data as given in PubChem BioAssay AID623877 (Johns Hopkins Ion Channel Center, 2012).
The list shows a part of the results, in another mix than the full data. Active and inactive are the calls of the source.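 How the source made its calls: active means fluorescence-ratio B-score plate-corrected deviation score at least 3 library SD below zero, with starting fluorescence score within 5 deviations; inactive means the rest.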

Sequences of proteins named here, by UniProt entry; tags and fusion partners are left off.
UniProt Q8BHY3, whole entry: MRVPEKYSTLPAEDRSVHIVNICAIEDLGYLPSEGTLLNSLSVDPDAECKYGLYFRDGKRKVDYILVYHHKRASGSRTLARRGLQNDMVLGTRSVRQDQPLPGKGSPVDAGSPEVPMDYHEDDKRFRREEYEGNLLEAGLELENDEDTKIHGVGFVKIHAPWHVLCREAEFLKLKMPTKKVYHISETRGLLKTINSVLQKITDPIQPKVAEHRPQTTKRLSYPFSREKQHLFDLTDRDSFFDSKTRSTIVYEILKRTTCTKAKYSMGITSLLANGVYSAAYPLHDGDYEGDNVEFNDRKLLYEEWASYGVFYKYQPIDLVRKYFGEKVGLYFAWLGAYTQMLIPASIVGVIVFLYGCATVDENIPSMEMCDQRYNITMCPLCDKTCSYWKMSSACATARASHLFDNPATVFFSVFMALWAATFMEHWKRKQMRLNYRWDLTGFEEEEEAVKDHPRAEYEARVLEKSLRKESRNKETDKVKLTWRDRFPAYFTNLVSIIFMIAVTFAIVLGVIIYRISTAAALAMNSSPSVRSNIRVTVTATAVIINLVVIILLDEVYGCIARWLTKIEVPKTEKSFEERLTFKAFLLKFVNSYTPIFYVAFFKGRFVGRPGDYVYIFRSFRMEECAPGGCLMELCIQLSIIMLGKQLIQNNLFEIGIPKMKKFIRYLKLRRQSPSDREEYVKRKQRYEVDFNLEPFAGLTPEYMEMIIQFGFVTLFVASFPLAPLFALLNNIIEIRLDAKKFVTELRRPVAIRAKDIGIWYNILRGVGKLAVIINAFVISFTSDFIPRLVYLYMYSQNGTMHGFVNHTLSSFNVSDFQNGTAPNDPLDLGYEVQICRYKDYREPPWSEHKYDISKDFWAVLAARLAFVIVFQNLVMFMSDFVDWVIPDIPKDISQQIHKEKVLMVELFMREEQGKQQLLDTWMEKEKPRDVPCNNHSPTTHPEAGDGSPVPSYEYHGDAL

target: Anoctamin-1 (Mus musculus) (UniProt Q8BHY3); experiment: mouse ANO1 channel activation – cell-based, HTS, primary screen (AID 623877); conditions: HEK293 TMEM16A/YFP-H148Q/I152L, iodide quench fluorescence, at 10 µM

| Compound | outcome |
| --- | --- |
| Cc1nc2ccc3ccccc3c2s1.O=[N+]([O-])c1cc([N+](=O)[O-])c(O)c([N+](=O)[O-])c1 | inactive |
| CC1(CBr)Cn2c(nc3ccccc3c2=O)S1 (stereo unspecified) | inactive |
| CC(C)/C=N\N=C(\N)N[N+](=O)[O-] | inactive |
| CN(C(=O)Cc1ccc(Cl)c(Cl)c1)[C@@H]1CCCC[C@H]1N1CCCC1 | inactive |
| COc1ccccc1CNC(=O)COC(=O)C(O)(c1ccccc1)c1ccccc1 | inactive |
| O=[N+]([O-])c1cc([N+](=O)[O-])c(-c2cnn(-c3ccccc3)c2)c([N+](=O)[O-])c1 | inactive |
| O=C(/C=C/c1ccccc1)OC1CN2CCC1CC2 (stereo unspecified) | inactive |
| CCCC1OP(=O)(Nc2ccccc2)OCC1CC (stereo unspecified) | inactive |
| O=[N+]([O-])c1cc([N+](=O)[O-])c(Nc2nnnn2CCO)c([N+](=O)[O-])c1 | inactive |
| CN(C)C1(CNC(=O)c2ccc(S(C)(=O)=O)cc2)CCCCC1 | inactive |
| CC1=C2N=C(C=C3N=C(C(C)=C4[N-][C@@](C)([C@@H]5N=C1[C@](C)(CCC(=O)NC[C@@H](C)OP(=O)([O-])O[C@H]1[C@@H](O)[C@@H](n6cnc7cc(C)c(C)cc76)O[C@@H]1CO)[C@H]5CC(N)=O)[C@@](C)(CC(N)=O)[C@@H]4CCC(N)=O)[C@@](C)(CC(N)=O)[C@@H]3CCC(N)=O)C(C)(C)[C@@H]2CCC(N)=O.[C-]#N.[Co+3] | inactive |
| CCOC(=O)C(CC)C1=NC(C)(C)Cc2ccccc21.O=[N+]([O-])c1cc([N+](=O)[O-])c(O)c([N+](=O)[O-])c1 (stereo unspecified) | inactive |
| COc1cc(C2NCCC3(OCCO3)C2(C)C)cc(OC)c1OC.O=[N+]([O-])c1cc([N+](=O)[O-])c(O)c([N+](=O)[O-])c1 (stereo unspecified) | inactive |
| Cc1nn(-c2ccccc2)c2c1P(=O)(N1CCOCC1)N(C)C(c1ccccc1)=N2 (stereo unspecified) | inactive |
| CC1CCC(C(C)C)C(OP(=O)(Nc2ccccn2)c2ccccc2)C1 (stereo unspecified) | inactive |
| Cc1ccc(C(=O)OC2CN3CCC2CC3)cc1 (stereo unspecified) | inactive |
| O=P1(Nc2ccc(Br)cn2)COc2ccccc2OC1 | inactive |
| NS(=O)(=O)c1cccc(NC(=O)COC(=O)C(O)(c2ccccc2)c2ccccc2)c1 | inactive |
| O=[As](O)(c1cccs1)c1cccs1 | inactive |
| Cc1ccc(OCC(=O)OC2CN3CCC2CC3)cc1 (stereo unspecified) | inactive |
| Nc1cccc([As](=O)(O)c2ccccc2)c1 | inactive |
| CP(=O)(Nc1ccc(SC(F)(F)F)cc1)Oc1ccccc1 (stereo unspecified) | inactive |
| CCCOc1ccc(NP(C)(=O)Oc2ccc(Cl)cc2)cc1 (stereo unspecified) | inactive |
| O=P1(Nc2ncccn2)COc2ccccc2OC1 | inactive |
| COc1ccccc1OP(C)(=O)Nc1c(C)cccc1C (stereo unspecified) | inactive |
| CN1CCCCC1COC(=O)C1(O)c2ccccc2CCc2ccccc21 (stereo unspecified) | inactive |
